Laboratory results taken from ChEMBL document CHEMBL1148506, “Structure-activity relationships of new 1H-imidazo[4,5-c]quinolin-4-amine derivatives as allosteric enhancers of the A3 adenosine receptor” (J Med Chem, 2006).

By UniProt entry, the sequences of proteins in these tests, tags left out.
UniProt P0DMS8, whole entry: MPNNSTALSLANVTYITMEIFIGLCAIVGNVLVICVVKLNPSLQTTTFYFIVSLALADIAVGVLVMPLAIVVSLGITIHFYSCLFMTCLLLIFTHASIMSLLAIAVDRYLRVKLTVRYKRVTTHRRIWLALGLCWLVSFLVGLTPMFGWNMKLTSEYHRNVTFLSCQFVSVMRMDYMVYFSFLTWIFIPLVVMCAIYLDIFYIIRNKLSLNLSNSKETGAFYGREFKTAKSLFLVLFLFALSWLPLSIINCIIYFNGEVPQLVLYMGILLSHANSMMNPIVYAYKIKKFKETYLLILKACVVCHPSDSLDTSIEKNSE

Target: Adenosine receptor A3 (Homo sapiens) (UniProt P0DMS8)
Experiment: Decrease in dissociation of [125I]I-AB-MECA from human adenosine A3 receptor in CHO membrane at 10 uM relative to control after 30 min
Format: cell membranes
Parameters: scale not given: the % may be the effect or the level left
Summary of the method: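 Membranes (20 μg) preloaded with 0.5 nM [125I]I-AB-MECA, 60 min at 25°C, in 50 mM Tris-HCl pH 8.0 with 10 mM MgCl2 and 1 mM EDTA. Dissociation started with 3 μM Cl-IB-MECA, with or without 10 μM modulator. Binding read by rapid filtration at 30 min; reported as % decrease in dissociation versus control (100%).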

Activity: 116%
Compound: Clc1ccc(Nc2nc3ccccc3c3[nH]c(C4CCC4)nc23)cc1Cl
